Values of other authors as cited in patent publication US20240315989A1 (priority 2021, published 2024).

By UniProt entry, the sequences of proteins in these tests, tags left out.
UniProt Q9R0C9, whole entry: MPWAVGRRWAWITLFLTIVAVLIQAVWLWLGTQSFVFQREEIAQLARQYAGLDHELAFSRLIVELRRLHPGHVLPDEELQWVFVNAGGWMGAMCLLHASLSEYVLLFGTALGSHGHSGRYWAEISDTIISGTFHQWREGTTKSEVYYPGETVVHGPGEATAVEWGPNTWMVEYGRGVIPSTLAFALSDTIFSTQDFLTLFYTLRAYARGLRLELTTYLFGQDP
UniProt Q99720, whole entry: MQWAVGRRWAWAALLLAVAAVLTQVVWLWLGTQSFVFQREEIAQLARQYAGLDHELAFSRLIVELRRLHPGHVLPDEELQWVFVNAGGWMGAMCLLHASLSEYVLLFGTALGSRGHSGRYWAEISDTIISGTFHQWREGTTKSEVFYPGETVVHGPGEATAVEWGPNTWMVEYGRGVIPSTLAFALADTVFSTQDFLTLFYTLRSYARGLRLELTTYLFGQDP

Legend:
[1] = biological target: sigma-1 receptors (Rattus norvegicus, UniProt Q9R0C9); conditions: cited from earlier work
[2] = system: SARS-CoV-2; conditions: cited from earlier work
[3] = biological target: σ1 site (Homo sapiens, UniProt Q99720); conditions: read-out: Affinity for σ1 Site (Ki or KD values); cited from earlier work

Row | Structure (SMILES) | Ki [1] [nM] | other results
1 | CN(C)CCCC1(c2ccc(F)cc2)OCc2cc(C#N)ccc21 (stereo not shown) [citalopram] | 404 | 
2 | CNCCC(Oc1ccc(C(F)(F)F)cc1)c1ccccc1 (stereo not shown) [fluoxetine] |  | Inhibiting SARS-CoV-2 replication at a concentration of [2]: at a concentration of 0.8 μg/ml
3 | CN(C)CCCN1c2ccccc2Sc2ccc(Cl)cc21 [Chlorpromazine] |  | Ki [3]: < 500 nM
4 | CN(C)CCC[C@@]1(c2ccc(F)cc2)OCc2cc(C#N)ccc21 [escitalopram] | 288 | 
